{"source": "patent US10406264B2", "about": "“Peptide having titanium-binding ability” (NANO INTELLIGENT BIOMEDICAL ENGINEERING CORPORATION. CO. LTD, priority 2016, dated 2019)", "format_in_all_cases": "cell-based", "key": {"[1]": {"test_system": "periodontal ligament stem cells (PDLSCs)", "assay": "mineralization of periodontal ligament stem cells (Alizarin red S) on coated titanium discs", "settings": "day 18; significant p<0.05, not significant p>0.05", "experimental": "In order to examine the osteogenic differentiation-inducting activity and loading of a titanium binding peptide-linked osteogenic peptide (SEQ ID NO: 3 or SEQ ID NO: 4) when being administered once, mineralization of periodontal ligament stem cells (PDLSCs) by the peptide was evaluated. Specifically, one titanium disc was placed in each well of a 24-well low-attachment polystyrene plate and blocked with a blocking solution (0.1 M NaHCO3 (pH 8.6), 5 mg/ml BSA, 0.02% NaN3 (optional), filter sterilize) for at least 1 hour. Next, the blocking solution was discarded, and each well was washed three times or more with a washing solution (DPBS: Dulbeccos phosphate buffered saline), after which 50 μl of the solution shown in Table 2 of Example 5 was dispensed and coated on the surface of each titanium disc. Each well was incubated at room temperature for 15 hours, and then washed three times or more with a washing solution (DPBS). […]\nFor 18 days after the first coating of the disc surface, the cells were cultured while replacing the medium without adding a solution containing the physiologically active substance. […] Then, the cells were incubated with 10% cetylpyridinium chloride (Sigma-Aldrich, USA) at room temperature for 2 hours, and the absorbance at 570 nm was measured."}, "[2]": {"test_system": "periodontal ligament stem cells (PDLSCs)", "assay": "ALP activity in periodontal ligament stem cells on coated titanium discs", "experimental": "In order to examine the osteogenic differentiation-inducting activity and loading of a titanium binding peptide-linked osteogenic peptide (SEQ ID NO: 3 or SEQ ID NO: 4) and a titanium-binding peptide (SEQ ID NO: 1) when these peptides are administered once, evaluation of ALP activity in periodontal ligament stem cells (PDLSCs) was performed. Specifically, one titanium disc was placed in each well of a 24-well low-attachment polystyrene plate and blocked with a blocking solution (0.1 M NaHCO3 (pH 8.6), 5 mg/ml BSA, 0.02% NaN3 (optional), filter sterilize) for at least 1 hour. Next, the blocking was discarded, and each well was washed three times or more with a washing solution solution (DPBS: Dulbeccos phosphate buffered saline), after which 50 μl of the solution shown in Table 2 of Example 5 was dispensed and coated on the surface of each titanium disc. Each well was incubated at room temperature for 15 hours, and then washed three times or more with a washing solution (DPBS). […]\nFor 18 days after the first coating of the disc surface, the cells were cultured while replacing the medium without adding a solution containing the physiologically active substance. On day 0, 6, 10, 13 and 18 of culture, cultured media were recovered, and ALP activity was measured using an alkaline phosphatase assay kit (cat#.ab83369, abcam, USA)."}, "PDLSC cells": {"test_system": "PDLSC cells", "assay": "cell viability test (trypan blue count) on peptide-coated titanium discs", "settings": "disc coated per Table 2 (peptides 100 μM, BMP-2 100 ng/ml)", "experimental": "In order to evaluate whether or not a titanium binding peptide-linked osteogenic peptide (SEQ ID NO: 3 or SEQ ID NO: 4) and a titanium-binding peptide (SEQ ID NO: 1) are cytotoxic when these peptides are administered alone, a cell viability test was performed.\nSpecifically, one titanium disc was placed in each well of a 24-well low-attachment polystyrene plate and blocked with a blocking solution (0.1 M NaHCO3 (pH 8.6), 5 mg/ml BSA, 0.02% NaN3 (optional), filter sterilize) for at least 1 hour. Next, the blocking solution was discarded, and each well was washed three times or more with a washing solution (DPBS: Dulbeccos phosphate buffered saline), after which 50 μl of the solution shown in Table 2 below was dispensed and coated on the surface of each titanium disc. Each well was incubated at room temperature for 15 hours, and then washed three times or more with a washing solution (DPBS). Next, 3×10^4 PDLSC cells suspended in 50 μl of a medium (Minimum Essential Medium Eagle Alpha Modifications, Hyclone, USA) containing 10% FBS (Fetal Bovine Serum) and 1% antibiotic-antimycotic solution (Thermo Fisher Scientific, USA) were dispensed per titanium disc. […] Next, the cells were detached, stained with trypan blue, and counted with a hematocytometer to determine the number of viable cells."}}}
{"substance": "BMP-2: bone morphogenetic protein, control, 100 ng/ml", "values": [{"measurement": "mineralization (absorbance at 570 nm), difference versus NT (negative control) group", "setting": "[1]", "result": "no statistically significant difference"}, {"measurement": "ALP activity on day 10 of culture, difference versus NT (negative control) group", "setting": "[2]; day 10, FIG. 7, significant p<0.05, not significant p>0.05", "result": "no statistically significant difference"}, {"measurement": "change in ALP activity during 18 days of culture", "setting": "[2]; single coating, days 0, 6, 10, 13, 18, FIG. 6", "result": "significant change in ALP activity was not observed"}, {"measurement": "Total cell number (viable cells), Average", "setting": "PDLSC cells; average of #1 and #2, 3 days culture", "result": "6.0 × 10^4"}, {"measurement": "Total cell number (viable cells), #1", "setting": "PDLSC cells; replicate #1, 3 days culture", "result": "4.5 × 10^4"}, {"measurement": "Total cell number (viable cells), #2", "setting": "PDLSC cells; replicate #2, 3 days culture", "result": "7.5 × 10^4"}]}
